Chains of the proteins cited; added tags and fusions are not shown.
UniProt Q6P179, whole entry K392N: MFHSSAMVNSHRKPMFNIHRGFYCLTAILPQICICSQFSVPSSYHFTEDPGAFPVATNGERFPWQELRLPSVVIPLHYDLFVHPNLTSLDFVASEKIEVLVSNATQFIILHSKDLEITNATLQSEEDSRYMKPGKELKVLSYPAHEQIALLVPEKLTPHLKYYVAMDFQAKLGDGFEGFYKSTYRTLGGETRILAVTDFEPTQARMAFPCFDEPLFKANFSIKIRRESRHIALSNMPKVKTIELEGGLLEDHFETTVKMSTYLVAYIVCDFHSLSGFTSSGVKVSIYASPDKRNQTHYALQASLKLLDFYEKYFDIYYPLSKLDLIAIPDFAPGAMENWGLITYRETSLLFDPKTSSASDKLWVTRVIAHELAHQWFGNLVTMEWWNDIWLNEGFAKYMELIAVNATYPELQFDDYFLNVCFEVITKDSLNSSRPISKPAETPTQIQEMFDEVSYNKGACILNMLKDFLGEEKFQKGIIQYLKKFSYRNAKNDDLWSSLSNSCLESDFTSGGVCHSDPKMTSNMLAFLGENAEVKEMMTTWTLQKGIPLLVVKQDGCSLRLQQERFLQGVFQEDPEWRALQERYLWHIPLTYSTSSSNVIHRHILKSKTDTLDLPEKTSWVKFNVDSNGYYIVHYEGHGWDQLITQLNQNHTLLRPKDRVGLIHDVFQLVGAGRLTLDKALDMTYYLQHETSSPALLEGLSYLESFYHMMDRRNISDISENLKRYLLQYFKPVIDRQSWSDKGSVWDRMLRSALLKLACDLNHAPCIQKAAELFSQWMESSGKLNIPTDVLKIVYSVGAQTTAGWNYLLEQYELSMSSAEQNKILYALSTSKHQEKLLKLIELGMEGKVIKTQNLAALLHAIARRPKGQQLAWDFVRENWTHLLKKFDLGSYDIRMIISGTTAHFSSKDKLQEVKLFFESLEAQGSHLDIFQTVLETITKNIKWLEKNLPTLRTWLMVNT

In paper PMC3530405 (Journal of immunology (Baltimore, Md. : 1950), 2012):

Molecular target: ERAP2^N (Homo sapiens, UniProt Q6P179, K392N)
Assay: Peptide trimming by ERAP2^N
Format: biochemical
Conditions: 37°C

For KSLYNTVATL, the “epitope production, comparison of alleles” value (ERAP2^N and ERAP2^K, 20 μM peptide, 50 mM HEPES pH 7.0, 100 mM NaCl) was “produced equally effectively by both ERAP2 alleles” and the “trimming rates, comparison of alleles” value (ERAP2^N vs ERAP2^K, 20 μM precursor, pH 7.0) was “almost identical rates by both ERAP2 alleles”.
